Test results taken from patent US20140121182A1, “PROTEASOME INHIBITORS AND PROCESSES FOR THEIR PREPARATION, PURIFICATION AND USE” (Cephalon, Inc., priority 2011, published 2014).

Assay: Storage for approximately one year at ambient indoor temperature and humidity, HPLC purity
Assay type: physicochemical
Settings: in a vial at the rear of a fume hood
Experimental: A 100 mL three neck round bottom flask equipped with a stir bar, thermocouple and nitrogen inlet is charged with 6.0 g (16.6 mmol) of Compound 1 (98.5A % purity) and 60 mL of ethyl acetate then stirred for five minutes at room temperature to dissolve the solids. Diethanol amine (1.68 g, 16.0 mmol) is charged and solids begin to form when addition is only ⅔ complete. The white slurry is stirred at room temperature for two hours and then the solids are collected by vacuum filtration, washed with 50 mL of ethyl acetate and dried overnight in a vacuum oven at 40° C. A quantitative yield of the desired product is obtained as a crystalline solid with an HPLC purity of 99.7A %. After storing for approximately one (1) year at ambient indoor temperature and humidity (in a vial at the rear of a fume hood), the HPLC purity was 99.9A %. ^1H NMR (d6-DMSO, 400 MHz) δ 8.8 (t, 1H, J=5.88 Hz), 7.55 (s, 2H), 7.52 (s, 1H), 6.99 (d, 1H, J=8.36 Hz), 6.57 (s, b, 1H), 3.85 (dq, 1H, J=16.1, 5.92 Hz), 3.69 (m, 2H), 3.57 (m, 1H), 3.14 (m, 1H), 2.99 (m, 2H), 2.75 (m, 1H), 2.69 (m, 1H), 1.59 (m, 1H), 1.31 (m, 1H), 1.22 (m, 1H), 0.824 (d, 3H, J=6.64 Hz), 0.797 (D, 3 h, J=6.48 Hz) […]

2,5-Dichloro-N—[(R)-3-methyl-1-(6-methyl-[1,3,6,2]dioxazaborocan-2-yl)-butylcarbamoyl]-methylbenzamide
HPLC purity after storing for approximately one (1) year: 99.6 A %
